From patent US20230265247A1, “PROCESS FOR PREPARING POLYIMIDES” (Technische Universität Wien, priority 2020, published 2023)

Settings: salts of tetrahydrofuran-2,3,4,5-tetracarboxylic acid; 1 ml distilled water with around 20 to 40% by weight of salt, stirred 15 minutes; no = no clear solution

Row | Substance | Salt is water-soluble
1 | Tricyclo[5.2.1.0^2,6]decane-3(4),8(9)-bis(methanammonium)-dihydrogen-tetrahydrofuran-2,3,4,5-tetracarboxylate [Example B17] | yes
2 | Norbornane bis(methylammonium)-dihydrogen-tetrahydrofuran-2,3,4,5-tetracarboxylate [Example B15] | yes
